# Antibody variant affinities, Ab-14 light chain, assay 1

Source: Engelhart et al. 2022 (doi:10.1038/s41597-022-01779-4), MIT Lincoln Laboratory and A-Alpha Bio; data file from the FLAb repository.

The target is the same throughout: PDVDLGDISGINAS, from the HR2 region of SARS-CoV-2 spike.

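The parent was found by panning a naive human phage display library on the peptide. In library AAYL50, one, two or three CDR residues were substituted; doubles and triples were drawn at random. The assay is AlphaSeq: two haploid yeast populations carry antibody and antigen on their surface. After mating in shaken culture at 30 °C for 16 h, diploids were selected and their barcode pairs sequenced. A regression on co-assayed BCL2-family reference pairs converts the normalised counts of each replicate to an apparent Kd. There are three technical replicates.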

The variants keep the heavy chain, the linker and the frameworks of Ab-14 (scFv order VH, the linker GGGGSGGGGSGGGGS, VL).
VH: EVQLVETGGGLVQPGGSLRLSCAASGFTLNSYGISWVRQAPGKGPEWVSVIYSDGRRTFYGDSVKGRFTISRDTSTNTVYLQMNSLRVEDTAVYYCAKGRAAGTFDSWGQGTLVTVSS
VL: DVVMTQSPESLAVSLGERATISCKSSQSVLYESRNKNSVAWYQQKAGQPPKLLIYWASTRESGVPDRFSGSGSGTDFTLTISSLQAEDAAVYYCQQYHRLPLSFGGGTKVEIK

The parent's light chain CDRs are KSSQSVLYESRNKNSVA, WASTRES, QQYHRLPLS; each variant's own CDRs replace them letter for letter. Affinities are written as log10 Kd with Kd in nM; a lower number is a better binder. A mean of the replicates is given; it leaves out those without a signal. "ND" marks a missing value. The strain was present, yet no cells mated with the target were sequenced in that replicate, which points to weak or no binding. In this assay the parent's reference entry averaged 0.65; its copy inside this library read 1.68.

| CDR-L1 | CDR-L2 | CDR-L3 | replicates, log10 nM | mean, log10 nM |
|---|---|---|---|---|
| KSSQEVLYESRNKNSVA | WASTREY | QQYARLPLS | 0.33 0.55 0.53 | 0.47 |
| KSSQSQLYESRNANSVA | WASHRES | QQYHRLPLS | ND ND ND | ND |
| KSSQSVLYTSRNKNSVS | WASTRWS | QQYHRLPLS | ND ND ND | ND |
| KSSQSVLYESMNKNSVA | WAPERES | QQYHRLPLS | ND ND ND | ND |
| KSSQSVLYEERNKNSVA | WASTRES | QDYHRDPLS | 1.11 1.24 1.28 | 1.21 |
| KASQSVSYESRNKNSVA | WASTRES | QQYHRLPLY | 1.98 1.64 1.81 | 1.81 |
| KSSQSVLYESRNKNSVW | WADFRES | QQYHRLPLS | ND 3.24 ND | 3.24 |
| KSSQSVLYESRNKNSVA | WATKRES | QQYTRLPLS | 2.62 2.39 2.44 | 2.48 |
| KSSQSVLCESRNKNSVA | WHSTRES | QQYHTLPLS | 2.09 2.14 2.07 | 2.10 |
| KYSQSVQYESRNKNSVA | WASTRES | QQYHALPLS | 0.52 0.77 0.75 | 0.68 |
| KSSQSVLYEFRNHISVA | WASTRES | QQYHRLPLS | ND ND ND | ND |
| NSSQSVLYESWNKNSVA | WASTRES | QQYHRLPLE | 0.94 0.88 1.16 | 0.99 |
| KSSQSVLYESRNKNPAA | WASTRES | QQYVRLPLS | ND ND ND | ND |
| KSSSSVLYESRYKNSVA | VASTRES | QQYHRLPLS | 3.31 ND 3.17 | 3.24 |
| KSSQSVLYEGMNKNSVC | WASTRES | QQYHRLPLS | 1.26 1.41 1.47 | 1.38 |
| KSSQSVLYESRNKNSVA | WYSERES | QQYHRLPLS | ND ND ND | ND |
| KSCQSVLYESRNKNSVA | WFSTRES | QQYHRLPLC | ND ND ND | ND |
| KSSLSVLYESRNKNSVA | FASTRES | FQYHRLPLS | ND 5.07 ND | 5.07 |
| KSSQSHLYESRNKPSVA | WASTIES | QQYHRLPLS | ND ND ND | ND |
| KSSQSMLYESRNKLSVA | WASTRES | QPYHRLPLS | 5.59 ND 4.43 | 5.01 |
| KSSQSVLYASRNKNSEA | WASTRES | QQYSRLPLS | 4.06 3.53 ND | 3.79 |
| KSSQSVLYEERNKNIVA | WASTRES | QQYHRLPLH | ND ND 5.05 | 5.05 |
| KSMQSVLYESRNKNSVA | WASTLES | GQYHRLPLS | ND ND ND | ND |
| KSSTSVLYESRNKNSVA | WASTRES | QQQHRLPHS | 1.14 1.31 1.81 | 1.42 |
| KSSQSVLYRSRNKNSVL | WASTRES | QQYHRLFLS | ND ND ND | ND |
| KSSQSLLYESRNKNSVA | WASTRES | QNYHRFPLS | ND ND ND | ND |
| KSSQSDLYESRNKNSVA | WASCRES | QSYHRLPLS | 1.25 1.12 1.15 | 1.17 |
| KSSQNVLYESRNKNSVM | WASTRES | QQYHRLPLS | ND ND ND | ND |
| KSSQSVLYESRNKNSVA | WASTSEN | QQYHRLPLD | 3.07 ND 3.87 | 3.47 |
| KSSQSVLYESRNKNNVA | WAVTRTS | QQYHRLPLS | ND ND ND | ND |
| KSSQSVLYWSRNKNSVA | WASTRES | QQYHRMPLS | 2.68 2.42 2.63 | 2.57 |
| KSSQSVLYESRNKNFVA | WASTYES | QQYHRLELS | ND ND ND | ND |
| KSSQSVLYWSRNKNSTA | WASTRES | QQYHRMPLS | 5.05 3.58 ND | 4.31 |

The first 5 variants above that were never detected:

CDR-L1	CDR-L2	CDR-L3	replicates, log10 nM	mean, log10 nM
KSSQSQLYESRNANSVA	WASHRES	QQYHRLPLS	ND ND ND	ND
KSSQSVLYTSRNKNSVS	WASTRWS	QQYHRLPLS	ND ND ND	ND
KSSQSVLYESMNKNSVA	WAPERES	QQYHRLPLS	ND ND ND	ND
KSSQSVLYEFRNHISVA	WASTRES	QQYHRLPLS	ND ND ND	ND
KSSQSVLYESRNKNPAA	WASTRES	QQYVRLPLS	ND ND ND	ND

As a blank, each scFv also met three strains without target: over library AAYL50, 18% of these pairings were detected, typically at 4.19 and seldom below 2.99.